From ChEMBL document CHEMBL1135762, “Chiral N,N-disubstituted trifluoro-3-amino-2-propanols are potent inhibitors of cholesteryl ester transfer protein” (J Med Chem, 2002)

Biological target: T1, Cholesteryl ester transfer protein (Homo sapiens, UniProt P11597)
T1 sequence (P11597 whole entry): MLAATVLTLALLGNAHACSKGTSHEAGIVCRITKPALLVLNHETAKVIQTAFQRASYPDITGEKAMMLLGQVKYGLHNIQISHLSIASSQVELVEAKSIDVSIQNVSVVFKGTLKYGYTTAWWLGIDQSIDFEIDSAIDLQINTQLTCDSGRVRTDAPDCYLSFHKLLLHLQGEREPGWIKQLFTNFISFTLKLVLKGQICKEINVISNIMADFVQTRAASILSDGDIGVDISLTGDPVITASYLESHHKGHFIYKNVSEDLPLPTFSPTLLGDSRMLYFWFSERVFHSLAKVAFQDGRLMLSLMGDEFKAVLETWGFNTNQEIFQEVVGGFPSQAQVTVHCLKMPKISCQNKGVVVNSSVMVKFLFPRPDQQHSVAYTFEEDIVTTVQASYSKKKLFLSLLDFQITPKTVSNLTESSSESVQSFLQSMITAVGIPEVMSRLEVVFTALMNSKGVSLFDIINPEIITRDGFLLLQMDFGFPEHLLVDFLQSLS
Assay: Concentration required for 50% Inhibition against Cholesteryl ester transfer protein in presence of human serum

OC(CN(Cc1cccc(OC(F)(F)F)c1)c1cccc(OC(F)(F)F)c1)C(F)(F)F (stereo unspecified)
IC50: 46 µM
